This note sets out measurements from PubChem BioAssay AID463 (The Scripps Research Institute Molecular Screening Center, 2006).

Molecules are shown by their SMILES. The list shows a part of the results, in another mix than the full data. The source made the active and inactive calls.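 The calls were made as follows: active = inhibition above the mean inhibition of all tested compounds plus 3 SD (cut at about 28% in these data); inactive = the rest.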

The assay can be described thus: cytotoxicity toward Jurkat T cells, primary screen, cytotoxicity control, cell-based, Jurkat E6.1, 60K MLSMR library (AID 463). The note with it: Jurkat E6.1 viability, ATP luminescence, 48 h; at 4 µM; hits give high values.
Take `CCOc1ncccc1C(=O)NCC1(N2CCOCC2)CCCCC1`: the inhibition was inactive: -3%.

Turning to `CCC(CO)(C(=O)OC1CN2CCC1CC2)c1ccccc1` (configuration not stated), the inhibition is inactive: -3.4%.

Take `Fc1ccccc1NC1CCN(Cc2ccccc2)CC1`: the inhibition is inactive: 6.9%.

For `N/C(=N\O)c1c(N)no[n+]1[O-]`, the inhibition was inactive: -1.3%.

With `N#CC1(Nc2ccccc2)CCN(CCc2ccccc2)CC1`, the inhibition is inactive: -2%.

In the case of `COc1ccc(NC2CCN(CCc3ccccc3)CC2)c(OC)c1`, the inhibition is inactive: 5.2%.

As for `O=C(OC1CN2CCC1CC2)C1c2ccccc2Oc2ccccc21` (configuration not stated), the inhibition is inactive: -6.8%.
